Measurements published in patent publication US20100256137A1, “INDAZOLAMIDE DERIVATIVES” (MERCK PATENT GESELLSCHAFT MIT BESCHRANKTER HAFTUNG, priority 2007, published 2010).

molecular target: T1, Recombinant human HSP90a (Homo sapiens, UniProt P07900); experiment: HSP90 radioligand filter binding test ([3H]17AAG competition); details: [3H]17AAG 0.08 μM, HSP90 1.5 μg/assay, 22° C., 30 min, pH 7.0; read-out: IC50 (HSP90 inhibition)
T1 construct: host or cells: E. coli
Description: In the specific case, a radioligand filter binding test is used. The radioligand used here is tritium-labelled 17-allylaminogeldanamycin, [3H]17AAG. This filter binding test allows a targeted search for inhibitors which interfere with the ATP binding site.
HEPES filter buffer (50 mM HEPES, pH 7.0, 5 mM MgCl2, BSA 0.01%)
Multiscreen FB (1 μm) filter plate (Millipore, MAFBNOB 50).
The 96-well microtitre filter plates are firstly irrigated and coated with 0.1% of polyethylenimine.
The test is carried out under the following conditions:
Reaction temperature 22° C.
Reaction time: 30 min., shaking at 800 rpm
50 mM HEPES HCl, pH 7.0, 5 mM MgCl2, 0.01% (w/v) of BSA
At the end of the reaction, the supernatant in the filter plate is removed by suction with the aid of a vacuum manifold (Multiscreen Separation System, Millipore), and the filter is washed twice.
The filter plates are then measured in a beta counter (Microbeta, Wallac) with scintillator (Microscint 20, Packard).
“% of control” is determined from the “counts per minutes” values, and the IC-50 value of a compound is calculated therefrom.

| IC50 [nM] | SMILES |
| --- | --- |
| 1000 to 10000 | Cc1cccc(Cc2n[nH]c3cc(O)c(C(=O)N4CC[C@H](O)C4)cc23)c1 [Compound A9, 5-((S)-3-Hydroxypyrrolidin-1-ylcarbonyl)-3-(3-methylbenzyl)-6-hydroxy-1H-indazole] |
| 10 to 1000 | Cc1cccc(Cc2n[nH]c3cc(O)c(C(=O)N4CCC(O)C4)cc23)c1 (stereo not drawn) [Compound A6, 5-(3-Hydroxypyrrolidin-1-ylcarbonyl)-3-(3-methylbenzyl)-6-hydroxy-1H-indazole] |
| 10 to 1000 | Cc1cccc(Cc2n[nH]c3cc(O)c(C(=O)N4CC[C@@H](O)C4)cc23)c1 [Compound A8, 5-((R)-3-Hydroxypyrrolidin-1-ylcarbonyl)-3-(3-methylbenzyl)-6-hydroxy-1H-indazole] |
